Results on 1 compound are retold here after BindingDB's records for doi:10.1016/j.ejmech.2023.115234 (Sichuan University, 2023).

The chains behind the UniProt entries cited, without tags or fusion partners. Where a name states a change or a piece, a line headed by the entry shows the natural chain unless it says otherwise.
UniProt Q99572: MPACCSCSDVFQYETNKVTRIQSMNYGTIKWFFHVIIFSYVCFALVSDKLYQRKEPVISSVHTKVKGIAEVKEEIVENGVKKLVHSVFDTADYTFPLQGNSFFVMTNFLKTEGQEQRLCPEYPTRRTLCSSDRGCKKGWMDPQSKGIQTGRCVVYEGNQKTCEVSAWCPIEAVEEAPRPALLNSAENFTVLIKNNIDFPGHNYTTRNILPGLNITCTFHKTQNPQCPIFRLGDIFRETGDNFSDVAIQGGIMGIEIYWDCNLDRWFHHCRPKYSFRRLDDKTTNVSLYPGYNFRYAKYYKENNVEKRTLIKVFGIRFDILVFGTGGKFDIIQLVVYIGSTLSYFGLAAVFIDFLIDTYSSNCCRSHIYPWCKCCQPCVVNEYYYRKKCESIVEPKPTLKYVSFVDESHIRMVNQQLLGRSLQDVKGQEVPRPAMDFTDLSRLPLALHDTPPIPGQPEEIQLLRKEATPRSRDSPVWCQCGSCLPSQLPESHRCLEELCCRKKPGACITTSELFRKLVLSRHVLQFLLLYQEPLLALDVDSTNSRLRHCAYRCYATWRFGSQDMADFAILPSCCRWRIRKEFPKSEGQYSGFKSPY

The experiment concerns the target P2X purinoceptor 7 (Homo sapiens, UniProt Q99572). Kind of experiment: Antagonist activity at recombinant human P2X7 receptor expressed in 1321N1 cells measured after 30 mins by fluorescence based calcium flux assay. (Calcium assays in cells follow changes in intracellular calcium, usually with a dye or a luminescent sensor.)

In general, IC50 refers to the concentration needed to halve the response being measured.

As for `C[C@@H]1c2nnn(-c3ccccc3)c2C[C@H](C)N1C(=O)c1cccc(C(F)(F)F)c1Cl` [US9464084, 287], the IC50 came out at 7 nM.
